Source: paper PMC11049645, “Mechanistic Study of Novel Dipeptidyl Peptidase IV Inhibitory Peptides from Goat’s Milk Based on Peptidomics and In Silico Analysis” (Foods, 2024)

The chains behind the UniProt entries cited, without tags or fusion partners.
UniProt P27487, whole entry: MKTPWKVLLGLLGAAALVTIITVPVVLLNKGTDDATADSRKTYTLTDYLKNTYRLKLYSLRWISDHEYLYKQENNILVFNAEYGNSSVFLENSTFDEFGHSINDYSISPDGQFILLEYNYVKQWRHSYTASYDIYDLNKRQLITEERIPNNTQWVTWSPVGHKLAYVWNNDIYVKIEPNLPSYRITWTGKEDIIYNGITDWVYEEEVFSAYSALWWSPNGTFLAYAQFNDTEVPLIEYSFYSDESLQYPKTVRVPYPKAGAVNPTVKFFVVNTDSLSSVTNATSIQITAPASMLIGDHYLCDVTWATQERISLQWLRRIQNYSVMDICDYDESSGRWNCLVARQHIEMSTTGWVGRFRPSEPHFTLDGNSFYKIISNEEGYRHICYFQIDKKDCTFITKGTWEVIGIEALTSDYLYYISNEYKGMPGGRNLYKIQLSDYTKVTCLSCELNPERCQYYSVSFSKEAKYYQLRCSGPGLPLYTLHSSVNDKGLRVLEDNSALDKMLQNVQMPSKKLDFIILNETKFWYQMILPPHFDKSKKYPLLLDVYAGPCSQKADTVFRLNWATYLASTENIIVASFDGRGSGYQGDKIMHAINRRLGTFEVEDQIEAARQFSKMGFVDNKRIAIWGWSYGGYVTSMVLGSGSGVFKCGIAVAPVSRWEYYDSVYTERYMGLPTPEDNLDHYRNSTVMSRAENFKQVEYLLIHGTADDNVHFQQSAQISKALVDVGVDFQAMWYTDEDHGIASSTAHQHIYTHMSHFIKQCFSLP

Legend:
DPP-IV = biological target: T1, DPP-IV (Homo sapiens, UniProt P27487); experiment: DPP-IV inhibitory assay (in vitro chemical system, Gly-Pro-pNA); assay type: biochemical; conditions: Gly-Pro-pNA substrate, pH 8, 37 °C, 60 min, mean ± SD
T1 construct: purchased Sigma-Aldrich
Description: The DPP-IV inhibitory activity of peptides was performed as previously reported with slight modifications. Briefly, peptides were diluted using 100 mM Tris-HCL buffer (pH = 8). Then, 25 μL diluted peptides were mixed with 25 μL of 1.6 mM Gly-Pro-pNA in a 96-well microplate and incubated at 37 °C for 10 min. […] The DPP-IV-inhibition (DI) was calculated with the following equation: DI%=1−AS−ASC/ANR−ANC×100% where AS (sample) is the optical density in the presence of peptide, DPP-IV, and Gly-Pro-pNA; ASC (sample control) is the optical density when DPP-IV is replaced with Tris-HCl buffer (100 mM, pH 8.0); ANR (negative reaction) is the optical density in the presence of only DPP-IV solution and Gly-Pro-pNA; and ANC (negative control) is the optical density in the absence of DPP-IV and peptide.

[1] = biological target: T2, DPP-IV activity of Caco-2 cells (Homo sapiens, UniProt P27487); experiment: In situ cell-based DPP-IV inhibition (Gly-Pro-AMC); conditions: 1 h at 37 °C, Gly-Pro-AMC 50 µM, mean ± SD (n = 3), read-out: In situ DPP-IV inhibitory activity IC50
T2 construct: endogenous in cells; host or cells: Caco-2
Description: The Caco-2 cells (Cell Bank of Shanghai Academy of Biological Science, Shanghai, China) were incubated at 37 °C in a 5% CO2 environment in DMEM supplemented with 10% FBS and 1% penicillin–streptomycin liquid. Unless otherwise stated below, the cells were cultivated at a density of 5 × 10^4 cells/mL in the culture dishes (Corning Inc., Corning, NY, USA). The cell culture medium was changed every two days, and the cells from passage numbers of 15–25 were used in this study.
Briefly, 2 × 10^4 Caco-2 cells/well cells were seeded in 96-well microplates and cultivated for 24 h. […] Subsequently, 100 µL of the fluorescent substrate Gly-Pro-AMC (50 µM) was added to each well and incubated for 5 min. IPI was used as a positive control. Then, the florescence was monitored with excitation and emission wavelengths of 380 nm and 500 nm (Molecular Devices SpectraMax M5, San Jose, CA, USA).

IC50 (DPP-IV): 9.28 ± 0.52 µM
IC50 [1]: 10.8 ± 2.72 µM
Compound: CC[C@H](C)[C@H](N)C(=O)N1CCC[C@H]1C(=O)N[C@H](C(=O)O)[C@@H](C)CC [Peptide P19, diprotin A]
